This test concerns the target T1, Opiate (Delta) (Rattus norvegicus, UniProt P33533).
T1 construct: Rat forebrain membranes; from tissue; host or cells: rat forebrain membranes
The experiment in a line: Opiate (Delta) Binding Assay. The conditions noted are these: reference compounds; Rat forebrain membranes; [3H]DPDPE.

Amino acid sequences for entries named in this document (tags omitted).
UniProt P33533, whole entry: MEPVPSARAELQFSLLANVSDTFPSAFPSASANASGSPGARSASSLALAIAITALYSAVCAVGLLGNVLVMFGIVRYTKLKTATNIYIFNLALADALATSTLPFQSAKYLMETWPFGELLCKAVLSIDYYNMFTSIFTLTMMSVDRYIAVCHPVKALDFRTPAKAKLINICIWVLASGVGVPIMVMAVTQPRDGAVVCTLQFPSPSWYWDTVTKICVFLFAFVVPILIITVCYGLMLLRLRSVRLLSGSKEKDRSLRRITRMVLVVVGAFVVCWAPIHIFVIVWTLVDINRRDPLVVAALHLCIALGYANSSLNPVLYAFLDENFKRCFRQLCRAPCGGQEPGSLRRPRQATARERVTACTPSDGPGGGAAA

The term Ki denotes a dissociation constant, usually derived from enzyme kinetics or from competition with a known ligand. The substance “Enkephaline [DPDPE, Enkephaline [2-D penicillamine, 5-D penicillamine]]” displayed a Ki of 1.6 nM.

Source of the values: US5889029A, “Use of cotinine in treating psychiatric disorders” (priority 1997, dated 1999).
